Paper PMC5793879 (Cancer cell, 2017)

The chains behind the UniProt entries cited, without tags or fusion partners. Residues count along the entry.
UniProt Q16611, 2-185 limits assumed: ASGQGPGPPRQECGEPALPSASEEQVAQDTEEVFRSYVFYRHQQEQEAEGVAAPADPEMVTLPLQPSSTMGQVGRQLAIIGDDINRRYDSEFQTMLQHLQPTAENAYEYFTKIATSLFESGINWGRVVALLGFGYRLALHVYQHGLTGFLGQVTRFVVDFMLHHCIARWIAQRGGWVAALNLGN

Molecular target: BAK (Homo sapiens, UniProt Q16611)

## O=C1C(=NNc2nccs2)C(c2ccccc2)=NN1c1nc(-c2ccccc2)cs1 [BTSA1]
  direct activation of BAK: no capacity to directly activate
